Measured values reported in US20150044209A1.

Sequences of proteins named here, by UniProt entry; tags and fusion partners are left off. Residues count along the entry.
UniProt P05019, 49-118 limits assumed: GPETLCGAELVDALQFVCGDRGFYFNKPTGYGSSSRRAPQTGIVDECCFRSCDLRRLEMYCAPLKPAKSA

How the values were obtained:
[1] = target: ligand-immobilized surfaces (hIGF-I, mIGF-I and hIGF-II); assay: SPR, multi-cycle, Trap flowed over ligand-immobilized surfaces; ligand not named
human IGF-1 (human) [2] = target: human IGF-1 (human) (UniProt P05019); assay: SPR, multi-cycle, Trap flowed over amine-coupled ligand, 1:1 kinetic model, n=4
human IGF-1 (human) [3] = target: human IGF-1 (human) (UniProt P05019); assay: SPR (Biacore 3000), multi-cycle, ligand titrated over amine-coupled Trap, 1:1 kinetic model, n=4

koff [1]	Kd (human IGF-1 (human) [2])	Kd (human IGF-1 (human) [3])	Substance
0.0008 s⁻¹	11 nM	13 nM	Trap D: h-sIGF1R, purified from CHO cells by calcium hydroxyapatite (CHT) column followed by gel filtration (GF) (from UniProt P08069 31-935) (receptor)
–	–	8 nM	Trap B: His-tagged h-sIGF1R purified from 293 cells (from UniProt P08069 31-935) (receptor)
